From article PMC2374418, “A prolonged methoxymorpholino doxorubicin (PNU-152243 or MMRDX) infusion schedule in patients with solid tumours: a phase 1 and pharmacokinetic study” (British Journal of Cancer, 2000)

Assay: Pharmacokinetics in plasma and urine, first cycle, non-compartmental analysis
From the text: Nowadays, anthracyclines play an important role in chemothera- peutic treatment of a wide variety of tumour types. The clinical use of anthracyclines is limited by their toxicity profile, especially irreversible, cumulative dose-related cardiotoxicity, and by intrinsic or acquired resistance of tumours cells. Mechanisms of this resistance consist of several pathways, such as overexpression of drug efflux pumps (i.e. P-glycoprotein), decrease in topoiso- merase II enzyme levels, and increase in cellular detoxifying capacity (Kaye and Merry, 1985; Deffie et al, 1989; de Jong et al, 1990; Ford and Hait, 1990; Roninson, 1997). Morpholinyl anthracyclines, such as methoxymorpholino doxorubicin (MMRDX or PNU-152243), were synthesized in search for new anthracyclines with at least partially novel modes of action, including activity on multidrug-resistant (MDR) tumours. MMRDX is a novel doxorubicin derivative in which the nitrogen atom of the daunosamine is enclosed in a methoxymor- pholino ring (Figure 1). […] The working mechanism of morpholinyl anthracyclines appears to be different from other anthracyclines. Morpholinyl anthracyclines inhibit ribosomal gene transcription as well as topoisomerase I-mediated DNA-cleavage (Wassermann et al, 1988, 1990). […] In addition, we assessed pharmacokinetics of prolonged MMRDX-infusion. […]

13-dihydro-3-deamino-3-(2(S)-meth- oxy-4-morpholinyl) doxorubicin [13-dihydro metabolite]
Renal excretion (3 h i.v. infusion): negligible
Urine excretion of the 13-dihydro metabolite (after MMRDX 3 h infusion): up to 2.3 % of the administered dose
